From PubChem BioAssay
PINK1 modulator: changes PINK1 expression; PINK1 immunofluorescence, high-content cytometry, 24 h; Potency, µM (highest dose often 76.6 µM), inactives show at the top dose activation (PINK1 increase), actives largely listed as activators; 410,000 tested, 0.2% active; AID 624263; active means well fitted activation curve with a large enough effect; inconclusive means small, poorly fitted or top-dose-only effect; cell line not stated here; further: potency means the concentration at half of the fitted maximal effect; % of control where 0% means no effect; nearly all actives have a fitted effect of over 65% in size
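PINK1 protein, normally rapidly degraded, was detected by immunofluorescence after 24 hour compound treatment of a stable cell line. Titration data (5 concentrations) came from laser-scanning cytometry, with CCCP-treated wells as controls.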
ALOX12 inh: blocks human arachidonate 12S-lipoxygenase; P18054; purified 12hLO, xylenol orange hydroperoxide absorbance; Potency, µM (top dose mostly 108 µM), without a hit: at the top dose activity change, negative = inhibition, actives largely listed as inhibitors; 580,000 tested, 1.1% active; AID 1671190; further: potency means the concentration at half of the fitted maximal effect; on the % scale 0 is the no-effect control and ±100 the full control effect
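Purified human 12hLO at 150 nM in 25 mM Hepes, 0.01% Triton X-100, pH 7.0, preincubated 15 min at room temperature with compound. Reaction started with 40 uM arachidonic acid, 30 min at room temperature. Hydroperoxide measured by Fe-xylenol orange, 573/405 nm absorbance ratio.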
miR-21 reporter: raises the signal of a miR-21 reporter. HeLa miR-21 FLuc reporter, luciferase, 48 h. 340,000 tested, under 10 active. Potency, µM (highest dose often 38.3 µM), for the others: at the highest dose reporter change, positive = more light; active = well fitted rising curve with a large enough effect; inconclusive = small, poorly fitted or top-dose-only effect; inactive = no such curve, though single readings can be large or run the other way;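 note: % of control where 0% means no effect; miR-21 action dims this reporter so a rising signal means less miR-21 action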
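HeLa cells stably expressing CMV-driven firefly luciferase with a downstream miR-21 binding sequence, endogenously expressing miR-21, were treated with titrations (up to about 40uM final) for 48 hours at 37 degree Celsius. Luciferase luminescence was read after lysis.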
ERG Ets-DNA blk: blocks human ERG Ets domain binding to DNA. P11308. fluorescence polarization, His-ERG Ets domain / labelled DNA. Potency, µM (doses to about 76.9 µM), without a hit: at the highest dose FP activity, negative = inhibition, hits mostly inhibitors. 370,000 tested, 0.028% active; active means well fitted inhibition curve with a large enough effect in the polarisation, with a control signal flat; inconclusive means small, poorly fitted or top-dose-only effect, or effect the other way, or a change in a side signal; inactive means no such curve, though single readings can be large or run the other way; the % refers to the polarisation;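 further: polarization taken with two DNA probes labelled with fluorescein and Texas red; potency means the concentration at half of the fitted maximal effect; % of control where 0% means no effect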
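His-tagged ERG Ets domain (1 uM in the protein solution; 300mM KCl, 50mM Tris-HCl, 1mM EDTA, 1mM DTT, pH 7.5) received compound, then a probe mix of 5 nM fluorescein-DNA and 100nM Texas-615-DNA. Fluorescence polarization was read for both dyes.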
PTHR1 agonist: activates the human parathyroid hormone receptor PTHR1; Q03431; 410,000 tested, 0.075% active; AID 743266; Potency, µM (highest dose often 115 µM), for inactives: at the highest dose activation, usual class: activators; HEK293 GP2 PTHR1 cells, GloSensor cAMP luminescence, 1 h; further: potency means the concentration at half of the fitted maximal effect; nearly all actives have a fitted effect of over 55% in size
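HEK-293-derived GP2 cells expressing PTHR1 and a GloSensor cAMP reporter, 3,000/well, plated overnight, given luciferin plus IBMX (each 0.5 mM as added) for 1 h at 37 °C, then compound for 1 h at 37 °C. Luminescence was read after 15 min at room temperature.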
Giardia killer: kills Giardia lamblia. Giardia lamblia trophozoite viability. activity change, % at 7.66 µM, hits read low. 340,000 tested, 0.15% active. AID 540267; in the data active means activity change below about -80%; inconclusive means between about -30% and that limit;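 further: parasites exposed to compound for two days anaerobically before the ATP read; on the % scale 0 is the no-effect control and ±100 the full control effect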
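Each well holds 100 Giardia trophozoites and compound. After two days (48 hrs) at 37 deg C in anaerobic conditions, ATP is quantified by luminescence.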
Numbers without * were called inactive; i = inactive; ? = inconclusive; · = not tested or not shown; [ ] = dose if it differs, or a comment. Shown are actives, neighbours in structure and some others; about 1.3% of the full set was active somewhere. Unless noted, the call rests on the fitted dose curve; in most records, active means well fitted curve in the direction sought with a large enough effect; inconclusive means small, poorly fitted or top-dose-only effect, or another doubt; inactive means no such curve, though single readings can be large; an effect the other way counts as inactive or inconclusive.

Screens by letter: A = PINK1 modulator; B = ALOX12 inh; C = miR-21 reporter; D = ERG Ets-DNA blk; E = PTHR1 agonist; F = Giardia killer
> S=C(NCCN1CCOCC1)N/N=C/c1c2ccccc2cc2ccccc12
  A: 9%	B: ?	C: -2%	D: -5%	E: -5%	F: 0

> COCCNC(=S)N/N=C/c1c2ccccc2cc2ccccc12
  A: ?	B: 40µM*	C: -4%	D: -6%	E: -13%	F: 6

> COc1ccc(CNC(=S)N/N=C/c2ccc(O)c(OC)c2)cc1
  A: ?	B: 32µM*	C: -10%	D: 30%	E: -6%	F: -8

> CC(=O)Nc1ccc(S(=O)(=O)NC2=NCN(Cc3cccnc3)CN2)cc1
  A: ·	B: 14%	C: ·	D: ·	E: ·	F: ·

> NC(c1ccccc1)c1nnc2n1CCN(C(=O)N1CCCC1)C2 (stereo not given)
  A: ·	B: 7.9µM*	C: ·	D: ·	E: ·	F: ·

> NC(c1ccccc1)c1nnc2n1CCN(C(=O)N1CCOCC1)C2 (stereo not given)
  A: ·	B: 5%[6.33 µM]	C: ·	D: ·	E: ·	F: ·

> CCOC(=O)c1cc([N+](=O)[O-])sc1NC(=O)c1ccc(S(=O)(=O)N2CC3(C)CC2CC(C)(C)C3)cc1 (stereo not given)
  A: 2.5µM*	B: 3%	C: 2%	D: ·	E: -32%	F: ?

> CCOC(=O)c1cc([N+](=O)[O-])sc1NC(=O)CC
  A: -1%	B: -14%	C: 1%	D: 1%	E: i	F: -86*

> O=C(O)Cn1ccc2cc(OCCc3cccc(-c4cccc(F)c4)c3)cnc21
  A: ·	B: 50µM*	C: ·	D: ·	E: ·	F: ·

> O=C(O)Cn1ccc2cc(OCCc3cccc(-c4ccc(F)cc4)c3)cnc21
  A: ·	B: 50µM*	C: ·	D: ·	E: ·	F: ·

> COc1ccc(CCNC(=O)c2cnc3scc(C)n3c2=O)cc1OC
  A: 1%	B: -18%	C: -25%	D: 3%	E: i	F: 3

> Nc1ccc(N2CCCCC2)cc1N1CCCCC1
  A: 16µM*	B: 254%	C: 30%	D: 0%	E: -9%	F: 2

> O=C(/C=C/c1ccccc1)Nc1cccc(S(=O)(=O)Nc2ccccc2F)c1
  A: 4%	B: 22µM*	C: -15%	D: -16%	E: -62%	F: -2

> CN1CCN(c2nc(-c3ccc(C(C)(C)C)cc3)nc3ccccc23)CC1
  A: 0%	B: 32µM*	C: -40%	D: 5%	E: -15%	F: -15

> Cc1ccccc1CSc1nnc(C)c(=O)[nH]1
  A: 0%	B: -5%[57.4 µM]	C: -8%	D: 7%	E: -47%	F: -20

Fetched by structure from the list above, 4 records:
Screens by letter: A = PINK1 modulator; B = ALOX12 inh; C = miR-21 reporter; D = ERG Ets-DNA blk; E = PTHR1 agonist; F = Giardia killer
> NC(c1ccccc1)c1nnc2n1CCN(C(=O)N1CCOCC1)C2 (stereo not given)
  A: ·	B: 5%[6.33 µM]	C: ·	D: ·	E: ·	F: ·

> O=C(/C=C/c1ccccc1)Nc1cccc(S(=O)(=O)Nc2ccccc2F)c1
  A: 4%	B: 22µM*	C: -15%	D: -16%	E: -62%	F: -2

> Cc1ccccc1CSc1nnc(C)c(=O)[nH]1
  A: 0%	B: -5%[57.4 µM]	C: -8%	D: 7%	E: -47%	F: -20

> CC(=O)Nc1ccc(S(=O)(=O)NC2=NCN(Cc3cccnc3)CN2)cc1
  A: ·	B: 14%	C: ·	D: ·	E: ·	F: ·

(cont.)
Every second line gives: PINK1 modulator	ALOX12 inh	miR-21 reporter	ERG Ets-DNA blk	PTHR1 agonist	Giardia killer
N#C/C(=C\c1ccc(-c2ccc(S(=O)(=O)N3CCOCC3)cc2)o1)C(=O)NC1CC1
 : 4%	-38%	3%	4%	-32%	6
Cc1ccccc1Sc1c(C#N)c(-c2ccccc2)nn1C
 : 7.1µM*	-28%	-1%	-4%	20%[57.5 µM]	-14
CC1CN(c2ccccc2)NC1=O (stereo not given)
 : 2%	28µM*	-15%	19%	i	-6
CC1CN(Cc2ccccc2)C(=O)NC1=O (stereo not given)
 : 4%	16%	·	-5%	i	-18
COc1ccc(C2(C(=O)N3CC(CO)C4(CCNCC4)C3)CCCCC2)cc1 (stereo not given)
 : ·	32µM*	·	·	·	·
Cc1[nH]n(-c2cccc3ccccc23)c(=O)c1/C=N/NC(=O)c1cccc([N+](=O)[O-])c1
 : 0%	45µM*	1%	8%	-25%	10
COCCN1Cc2c(sc(C)c2C)N(C(=O)c2ccccc2)C1
 : 0%	19%	-44%	-2%	-4%	-19
Cc1sc2c(c1C)CN(C(C)C)CN2C(=O)c1ccccc1
 : ·	6.3µM*	·	·	·	·
CN1CC(=O)N(C2CCC2)Cc2c(NCc3ccc(F)cc3)ncnc21
 : ·	-3%[6.33 µM]	·	·	·	·
O=S(=O)(Nc1cc(Cl)ccc1-n1cncn1)c1ccccc1Cl
 : 2%	?	·	2%[15.4 µM]	-69%	-4
O=S(=O)(Nc1cc(Cl)ccc1-n1cncn1)c1cc(Br)ccc1Br
 : 16µM*	?	·	1%	-26%	-6
CC(=O)Nc1ccc(/C(C)=N/OCc2cccc3cccnc23)cc1
 : ·	8%	·	·	·	·
COc1cccc(CNc2cnc3ccccc3c2)c1O
 : -1%[38.3 µM]	32µM*	-42%	·	-9%[57.5 µM]	-2
O=C(NC1CCCCCCC1)C1CCCN(c2ncnc3nc[nH]c23)C1 (stereo not given)
 : ·	-7%	·	·	·	·
CCC(CC)C(=O)Nc1cccc(C(=O)NC(C)(C)C)c1
 : 2%	-2%	-4%	-10%	-17%	-11
